Reference: patent US20110045517A1, “Toxic Material Detection Apparatus and Method” (published 2011)

Chains of the proteins cited; added tags and fusions are not shown. Residues count along the entry.
UniProt P81908, whole entry: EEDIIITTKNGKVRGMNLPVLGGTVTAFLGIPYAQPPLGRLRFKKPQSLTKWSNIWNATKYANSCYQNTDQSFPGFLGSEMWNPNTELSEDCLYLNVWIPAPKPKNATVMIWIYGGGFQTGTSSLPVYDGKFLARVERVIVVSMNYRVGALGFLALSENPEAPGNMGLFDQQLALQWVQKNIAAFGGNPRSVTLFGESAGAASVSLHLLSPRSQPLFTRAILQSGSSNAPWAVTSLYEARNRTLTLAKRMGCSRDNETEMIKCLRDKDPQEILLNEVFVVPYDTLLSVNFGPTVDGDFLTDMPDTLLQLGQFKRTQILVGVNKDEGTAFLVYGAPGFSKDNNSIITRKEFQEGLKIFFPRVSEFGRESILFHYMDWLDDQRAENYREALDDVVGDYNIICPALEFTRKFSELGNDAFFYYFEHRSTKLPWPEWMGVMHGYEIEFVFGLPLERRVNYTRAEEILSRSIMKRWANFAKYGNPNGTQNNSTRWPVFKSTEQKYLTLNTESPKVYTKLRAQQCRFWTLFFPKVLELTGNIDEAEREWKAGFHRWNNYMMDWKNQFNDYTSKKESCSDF
UniProt P22303, 32-614 limits assumed: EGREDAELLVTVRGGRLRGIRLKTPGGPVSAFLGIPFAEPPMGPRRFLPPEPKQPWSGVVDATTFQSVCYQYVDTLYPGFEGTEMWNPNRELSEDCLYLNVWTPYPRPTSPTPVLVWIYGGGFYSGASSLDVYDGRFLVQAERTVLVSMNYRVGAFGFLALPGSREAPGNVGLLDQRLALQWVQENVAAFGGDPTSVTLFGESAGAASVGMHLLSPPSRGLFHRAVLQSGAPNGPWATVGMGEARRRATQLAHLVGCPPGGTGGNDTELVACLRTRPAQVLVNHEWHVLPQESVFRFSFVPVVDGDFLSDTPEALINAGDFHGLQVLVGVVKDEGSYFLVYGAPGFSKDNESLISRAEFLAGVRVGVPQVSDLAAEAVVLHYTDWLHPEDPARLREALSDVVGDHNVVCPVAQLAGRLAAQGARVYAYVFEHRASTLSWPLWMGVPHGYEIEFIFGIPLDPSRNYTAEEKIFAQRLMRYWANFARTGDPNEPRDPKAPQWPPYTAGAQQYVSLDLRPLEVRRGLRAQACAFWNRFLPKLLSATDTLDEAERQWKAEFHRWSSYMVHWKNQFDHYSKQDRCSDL

Experiments:
[1] = biological target: equine butyrylcholinesterase (BChE) (Equus caballus, UniProt P81908); test: Enzymatic colorimetric test, Phenol Red pH indicator, BCI substrate; conditions: Enzyme/Agent Time 0.5
human AChE = human AChE (Homo sapiens, UniProt P22303); test: Cholinesterase inhibition colorimetric test with AChE, ATCI and DTNB; conditions: DTNB; substrate ATCI; Enzyme/Agent Time 0.5

| Compound | Amount Detected [1] | Amount Detected (human AChE) |
| --- | --- | --- |
| CCOP(=S)(OCC)Oc1ccc([N+](=O)[O-])cc1 | 500,000 ng | >100 ng |
| COP(N)(=O)SC (stereo not shown) | 290,000 ng | >100 ng |
